# Shown are actives, neighbours in structure and some others; about 1.7% of the full set was active somewhere.
# dFosB act-1: activators of delta FosB homodimer, primary screen, biochemical, fluorescence polarization, TAMRA-CDK5 oligo, single point; purified delta FosB; percent of positive-control signal above neutral wells; activation, % at 25 µM; hit rate 0.99% among 340,000;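 active = mean activation above about 17%, with every replicate also reaching it, limit read from the data, passing the limit was not always enough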
# CDK5 p35 inh: inhibitors of human CDK5/p35 kinase, primary screen, biochemical, single concentration. Cyclin-dependent kinase 5 (Homo sapiens) + Cyclin-dependent kinase 5 activator 1 (Homo …. Recombinant CDK5/p35, ADP-Glo luminescence, 60 min. inhibition, % at 10 µM. hit rate 0.01% among 330,000. AID 488839, 2010;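 active = highest replicate inhibition of at least 50% and at least 75% of replicates reaching 50%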;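 note: plate controls were DMSO neutral control for no effect and GW8510 at 10 µM for full effect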
# DYRK1A inh: rat Dyrk1A kinase inhibitors, primary screen, biochemical, single point, plate reader | hit rate 0.43% among 310,000 | inhibition, % at 12.5 µM | ADP-Glo luminescence, NFATc1 peptide; in the data active = inhibition above about 50%;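 note: plate controls were vehicle with enzyme for no effect and no enzyme for full effect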
# Yeast UUG start: modulators of yeast start codon fidelity, primary screen, whole organism, S. cerevisiae, single point, plate reader; S. cerevisiae UUG-firefly luciferase reporter, luminescence/redox ratio; activity score, % at 18.7 µM; actives 0.13% (n = 350,000); AID 602363, 2012;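 active = replicate mean at a twofold rise or more, about +100% in these data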;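 also: firefly luciferase made from a UUG start codon reports start codon fidelity; reporter light over untreated wells divided by growth signal over untreated wells; some hits fall short of that in this replicate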
# CAL PDZ FP-1: CAL PDZ peptide-binding inhibitors, primary screen, biochemical, fluorescence polarization, Cer-tagged CAL PDZ, HTS; purified CAL PDZ, TMR-peptide fluorescence polarization, 1 h; inhibition, % at 20 µM; hit rate 0.02% among 330,000; AID 504414, 2011;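 active = highest replicate inhibition of at least 40%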;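 note: plate controls were DMSO neutral control wells for no effect and unlabeled competitor peptide control wells for full effect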
#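 Material: tagged CAL PDZ protein CerCALP, purified; buffer or medium: sodium phosphate/NaCl buffer pH 7.4 with TCEP, IgG, Thesit; also added: fluorescent TMR peptide probe; schedule: 1 h incubation at room temperature before polarization reading; technique: fluorescence polarization from S- and P-plane intensities, G-factor corrected; control set: unlabelled peptide and DMSO controls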
# CAL PDZ FP-2: untagged CAL PDZ binding inhibitors, primary screen, biochemical, fluorescence polarization, HTS; hit rate 0.92% among 300,000; purified CAL PDZ, TMR-peptide fluorescence polarization, 1 h; inhibition, % at 24.9 µM;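 active = mean inhibition of at least 30% with at least half of replicates also reaching 30%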;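 note: 0% = DMSO neutral control and 100% = excess unlabeled competitor peptide PRC23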
# dFosB act-2: activators of mouse delta FosB DNA binding, confirmation, biochemical, fluorescence polarization, TAMRA-CDK5 oligo, cherry-picked samples; shares compounds with dFosB act-1; purified delta FosB; normalised: neutral wells 0, positive control 100; 2,400 tested, under 10 active; AID 588690, 2011; activation, % at 24.9 µM;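 active = highest replicate activation at or above 34% and every replicate reaching that threshold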;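 note: higher polarization means more probe DNA bound by delta FosB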
# An asterisk follows results filed as active; nt = no result.
SMILES,dFosB act-1,CDK5 p35 inh,DYRK1A inh,Yeast UUG start,CAL PDZ FP-1,CAL PDZ FP-2,dFosB act-2
O=C(CCc1nc2ccccc2c(=O)[nH]1)Nc1nnc(SCc2ccc(F)cc2)s1,90*,0,0,nt,-2,6,5
Cc1c(NC(=O)Cc2ccccc2)cccc1C(=O)NN1C(=O)c2ccccc2C1=O,23*,0,-2,0,-2,0,9
Cc1cccc(NC(=O)c2ccccc2NC(=O)Cc2ccccc2)c1C,-5,0,1,-17,-3,-3,nt
O=C(NNC1=Nc2ccccc2SC1)c1ccc(Cl)cc1,24*,1,19,-17,1,-2,-10
O=C(NNC1=Nc2ccccc2SC1)c1ccc(F)cc1,-9,1,-4,nt,1,-6,nt
CN1/C(=C\C(=O)c2ccco2)C(C)(C)c2ccccc21,24*,-1,-83,-1,-1,-8,0
CN1/C(=C\C(=O)CSc2nnc(NCc3ccccc3)s2)C(C)(C)c2ccccc21,23*,1,nt,-9,-2,-2,5
CCOC(=O)c1c(NC(=O)COC(=O)Cn2c(C)nc3ccccc32)sc2c1CCCC2,39*,nt,-5,-20,0,-1,-9
CC(C)NC(=O)Nc1ccc2c(c1)C(=O)N([C@H](C)CO)C[C@@H](C)[C@@H](CN(C)Cc1ccc(C(F)(F)F)cc1)O2,nt,nt,nt,6,nt,nt,nt
C[C@@H]1CN([C@H](C)CO)C(=O)Cc2cc(NC(=O)CCCCCC(=O)Nc3ccccc3N)ccc2O[C@H]1CN(C)CC1CCCCC1,nt,nt,nt,-2,nt,nt,nt

# Sorted by molar mass (falling): part of the list above.
SMILES,dFosB act-1,CDK5 p35 inh,DYRK1A inh,Yeast UUG start,CAL PDZ FP-1,CAL PDZ FP-2,dFosB act-2
CC(C)NC(=O)Nc1ccc2c(c1)C(=O)N([C@H](C)CO)C[C@@H](C)[C@@H](CN(C)Cc1ccc(C(F)(F)F)cc1)O2,nt,nt,nt,6,nt,nt,nt
O=C(NNC1=Nc2ccccc2SC1)c1ccc(Cl)cc1,24*,1,19,-17,1,-2,-10
O=C(NNC1=Nc2ccccc2SC1)c1ccc(F)cc1,-9,1,-4,nt,1,-6,nt

# The results go on.
SMILES,dFosB act-1,CDK5 p35 inh,DYRK1A inh,Yeast UUG start,CAL PDZ FP-1,CAL PDZ FP-2,dFosB act-2
CC1(C)Cc2c(sc3nc(SCC(=O)NCc4ccco4)n(-c4ccccc4)c(=O)c23)CS1,2,0,1,nt,-1,-4,nt
O=C(CSc1nc2sc3c(c2c(=O)n1-c1ccccc1)CCCC3)NCc1ccco1,52*,-1,4,-26,1,nt,8
O=C1C(c2ccccc2)SC(=Nc2ccccc2)N1S(=O)(=O)c1ccccc1 (configuration not stated),21*,-1,5,-50,1,nt,4
O=C(Cc1sc(-c2ccccc2Cl)nc1-c1ccccc1)Nc1ccc(F)cc1,25*,-1,3,nt,0,0,-1
O=C(Cc1sc(-c2ccccc2Cl)nc1-c1ccccc1)Nc1ccccc1,-35,-4,1,-20,-1,9,nt
CC(=O)Nc1ccc(NC(=O)Cc2sc(-c3cccnc3)nc2-c2ccc(C)cc2)cc1,30*,0,-3,-12,-1,nt,1
C[C@H]1CN([C@@H](C)CO)C(=O)c2cccc(NC(=O)C3CCCCC3)c2O[C@@H]1CN(C)Cc1ccccc1,nt,nt,nt,-5,nt,nt,nt
CC(C)NC(=O)N[C@H]1C=C[C@H](CC(=O)NCCCN(C)C)O[C@H]1CO,nt,nt,nt,-8,nt,nt,nt
C[C@H](CO)N1C[C@H](C)[C@H](CN(C)C(=O)Cc2ccccc2)OCCCC[C@H](C)Oc2ccc(NC(=O)Nc3ccc(C(F)(F)F)cc3)cc2C1=O,nt,nt,nt,-16,nt,nt,nt
CN1C(=O)c2cc(NC(=O)c3cccc(F)c3)ccc2OC[C@H]2O[C@H](CC(=O)N3CCc4ccccc4C3)CC[C@H]21,nt,nt,nt,-9,nt,nt,nt

# As entered above:
# Under Yeast UUG start, C[C@H](CO)N1C[C@H](C)[C@H](CN(C)C(=O)Cc2ccccc2)OCCCC[C@H](C)Oc2ccc(NC(=O)Nc3ccc(C(F)(F)F)cc3)cc2C1=O reads -16
# Under DYRK1A inh, O=C1C(c2ccccc2)SC(=Nc2ccccc2)N1S(=O)(=O)c1ccccc1 (configuration not stated) reads 5
# Under dFosB act-1, O=C(Cc1sc(-c2ccccc2Cl)nc1-c1ccccc1)Nc1ccc(F)cc1 reads 25*
# Under DYRK1A inh, CC(=O)Nc1ccc(NC(=O)Cc2sc(-c3cccnc3)nc2-c2ccc(C)cc2)cc1 reads -3
# Under dFosB act-1, CC1(C)Cc2c(sc3nc(SCC(=O)NCc4ccco4)n(-c4ccccc4)c(=O)c23)CS1 reads 2

# The list continues.
SMILES,dFosB act-1,CDK5 p35 inh,DYRK1A inh,Yeast UUG start,CAL PDZ FP-1,CAL PDZ FP-2,dFosB act-2
CC(=O)Nc1ccc(SCC(=O)c2c(N)n(Cc3ccccc3)c(=O)n(C)c2=O)cc1,17*,0,3,-24,-1,4,4
C[C@@H]1CN([C@H](C)CO)C(=O)c2cc(NC(=O)Nc3ccc4c(c3)OCO4)ccc2O[C@@H](C)CCCCO[C@H]1CN(C)C(=O)Cc1ccccc1,nt,nt,nt,22,nt,nt,nt
O=C(NC(C(=O)N/N=C/c1cccc2ccccc12)c1n[nH]c(=O)c2ccccc12)c1ccccc1 (configuration not stated),28*,-1,3,-6,-1,-4,8
O=C(NC(C(=O)N/N=C/c1ccncc1)c1n[nH]c(=O)c2ccccc12)c1ccccc1 (configuration not stated),-12,5,8,nt,-3,-2,nt
CCOc1cc(/C=N/NC(=O)c2ccc(CN3CCOCC3)cc2)ccc1OCc1ccccc1,21*,-2,-2,4,-2,0,-4
CCOc1cc(/C=N/NC(=O)C(=O)NCc2ccc3c(c2)OCO3)ccc1OCC(=O)N1CCOCC1,20*,1,4,-8,-2,3,0
CCOc1cc(/C=N/NC(=O)CN2CCOCC2)ccc1OCc1ccccc1,4,-1,-1,-16,-1,1,nt
COc1cc(/C=N/NC(=O)C(=O)NCC2CCCO2)ccc1OCC(=O)N1CCOCC1 (configuration not stated),1,-1,-1,nt,-2,-3,nt
CCNC(=O)C[C@H]1CC[C@@H](NS(=O)(=O)c2ccc(F)cc2)[C@H](CO)O1,nt,nt,nt,-2,nt,nt,nt
COC(=O)c1ccc(/C=N/Nc2nc3ccccc3[nH]2)cc1,-4,-1,2,nt,-2,2,nt
O=C(O)c1ccc(/C=N/Nc2nc3ccccc3[nH]2)cc1,25*,0,-1,-17,1,-4,0
CC(=O)Nc1ccc2nc(NC(=O)COc3ccccc3)sc2c1,-1,0,5,-18,-5,3,nt
CC(=O)Nc1ccc2nc(NC(=O)COc3cccc(C)c3)sc2c1,47*,0,nt,-10,12,-3,7
CC(=O)Nc1ccc2nc(NC(=O)COc3ccc(C)cc3)sc2c1,19*,0,10,nt,-3,3,-6
O=C(COc1ccccc1)Nc1nc2cc3c(cc2s1)OCCO3,2,0,-1,-23,0,nt,nt
CC(=O)Nc1ccc(NC(=O)COc2ccc(-c3ccc(C#N)cc3)cc2)cc1,34*,1,-1,-15,0,-2,4
O=C(COc1ccccc1)Nc1nc2cc3c(cc2s1)OCO3,28*,2,2,-15,-2,-4,1
CO[C@H]1CN(C)C(=O)c2cc(NS(=O)(=O)CC(F)(F)F)ccc2OC[C@H](C)N(Cc2cccnc2)C[C@@H]1C,nt,nt,nt,-4,nt,nt,nt
Cc1cccc(NC(=O)c2cc(-c3cccnc3)nc3c(C)cccc23)n1,55*,0,3,-8,-1,-1,0
CCOC(=O)c1nn(-c2ccc(C)cc2)c(=O)cc1OCC(=O)Nc1cc(C)ccc1OC,0,0,5,-7,-2,-1,nt
